Here are results for 11 compounds from US12139488B2, “Pyrido[3,2-d]pyrimidine compounds uses thereof for treating a proliferative disease” (Universite de Montreal, priority 2021, dated 2024).

Chains of the proteins cited; added tags and fusions are not shown.
UniProt P10398, whole entry: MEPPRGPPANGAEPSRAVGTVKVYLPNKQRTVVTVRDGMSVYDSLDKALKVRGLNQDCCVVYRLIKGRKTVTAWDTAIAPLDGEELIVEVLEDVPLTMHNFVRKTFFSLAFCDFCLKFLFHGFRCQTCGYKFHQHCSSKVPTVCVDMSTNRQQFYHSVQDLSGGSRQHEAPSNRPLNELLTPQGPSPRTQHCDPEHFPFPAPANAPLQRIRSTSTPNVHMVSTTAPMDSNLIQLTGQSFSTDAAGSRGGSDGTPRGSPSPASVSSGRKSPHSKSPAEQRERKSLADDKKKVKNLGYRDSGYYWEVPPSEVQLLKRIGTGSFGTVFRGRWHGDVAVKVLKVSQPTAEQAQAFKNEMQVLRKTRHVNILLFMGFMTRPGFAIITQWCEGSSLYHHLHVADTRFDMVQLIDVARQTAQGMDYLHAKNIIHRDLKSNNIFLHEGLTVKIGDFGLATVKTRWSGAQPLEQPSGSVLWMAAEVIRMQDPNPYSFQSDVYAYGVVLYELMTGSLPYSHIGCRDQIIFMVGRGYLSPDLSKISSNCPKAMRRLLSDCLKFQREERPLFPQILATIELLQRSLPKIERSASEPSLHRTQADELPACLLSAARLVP
UniProt P15056, whole entry: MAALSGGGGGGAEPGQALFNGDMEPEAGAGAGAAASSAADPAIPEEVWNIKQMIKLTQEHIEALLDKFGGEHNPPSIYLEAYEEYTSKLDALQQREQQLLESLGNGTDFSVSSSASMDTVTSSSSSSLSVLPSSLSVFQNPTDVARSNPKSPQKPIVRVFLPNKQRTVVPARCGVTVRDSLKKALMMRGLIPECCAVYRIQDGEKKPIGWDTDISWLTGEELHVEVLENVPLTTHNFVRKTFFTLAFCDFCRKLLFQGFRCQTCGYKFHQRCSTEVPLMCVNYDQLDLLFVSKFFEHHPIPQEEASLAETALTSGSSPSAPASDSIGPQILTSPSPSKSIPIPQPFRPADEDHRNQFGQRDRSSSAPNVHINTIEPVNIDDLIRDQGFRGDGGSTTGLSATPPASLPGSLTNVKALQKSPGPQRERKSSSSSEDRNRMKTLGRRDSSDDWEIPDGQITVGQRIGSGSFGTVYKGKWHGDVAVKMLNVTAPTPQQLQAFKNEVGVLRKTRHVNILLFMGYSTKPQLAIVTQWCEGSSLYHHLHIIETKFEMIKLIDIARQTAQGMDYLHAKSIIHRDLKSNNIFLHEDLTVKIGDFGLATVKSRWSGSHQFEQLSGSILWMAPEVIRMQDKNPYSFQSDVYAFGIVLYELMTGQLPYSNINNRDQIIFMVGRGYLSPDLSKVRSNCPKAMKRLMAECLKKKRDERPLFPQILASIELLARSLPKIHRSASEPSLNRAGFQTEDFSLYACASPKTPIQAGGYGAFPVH
UniProt P04049, whole entry: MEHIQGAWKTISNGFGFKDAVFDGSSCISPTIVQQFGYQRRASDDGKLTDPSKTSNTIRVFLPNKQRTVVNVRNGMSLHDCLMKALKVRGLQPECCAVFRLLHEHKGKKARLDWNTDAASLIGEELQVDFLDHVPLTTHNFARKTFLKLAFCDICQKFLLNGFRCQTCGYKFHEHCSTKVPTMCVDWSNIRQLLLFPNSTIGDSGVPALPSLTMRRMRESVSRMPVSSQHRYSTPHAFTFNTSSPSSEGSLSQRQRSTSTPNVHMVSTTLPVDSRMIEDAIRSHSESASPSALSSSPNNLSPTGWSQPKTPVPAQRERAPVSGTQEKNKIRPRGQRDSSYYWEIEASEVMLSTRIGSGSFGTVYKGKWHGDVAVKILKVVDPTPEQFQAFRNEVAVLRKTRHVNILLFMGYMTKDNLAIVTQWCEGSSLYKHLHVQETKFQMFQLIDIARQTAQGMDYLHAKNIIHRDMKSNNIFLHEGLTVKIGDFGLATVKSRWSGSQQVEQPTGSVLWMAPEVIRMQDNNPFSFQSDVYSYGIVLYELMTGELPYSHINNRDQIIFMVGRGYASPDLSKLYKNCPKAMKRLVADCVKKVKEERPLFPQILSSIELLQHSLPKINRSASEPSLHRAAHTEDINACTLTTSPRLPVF

One assay has as its target ARAF (Homo sapiens (Human), UniProt P10398). The assay is described as follows: ARAF kinase activity assay (AlphaLISA p-MEK 1/2 detection). To be noted: read-out: Kinase IC50 (nM) ARAF. On the procedure:
Compound preparation: solid samples of each substances in 1 dram vials were suspended in DMSO (Fisher Scientific) at a stock concentration of 20 mM. Stocks were kept at −20° C. and protected from light. If solubility of the compound at 20 mM appeared to be an issue, the initial concentration of the DMSO stock was changed to 10 mM or 5 mM.
In vitro enzymatic reactions were used for evaluating compounds intrinsic activity against BRAF, CRAF and ARAF. For BRAF and CRAF, 0.375 nM of purified GST-tagged kinases (cat #B4062-10 UG and cat #R1656-10 UG respectively from Millipore Sigma) were incubated with 75 nM of kinase-dead MEK1 substrate (cat #40075; BPS Bioscience) in the presence of 10 μM of Ultrapure ATP (cat #V9102; Promega; part V915A) with and without the test compound in a buffer containing 50 mM HEPES pH 7.5, 10 mM MgCl2, 1 mM EDTA, 0.01% Brij-35 and 2 mM DTT. Separate reactions were performed with the MEK1 substrate and ATP as a blank control. ARAF, kinase reactions were rigorously the same with the exception that kinase concentration was raised to 3.75 nM (cat #1768-0000-1; Reaction Biology).
For compound treatment, 5 μL/well of test substance solution are placed in a 384-well proxyplate (Perkin Elmer) and mixed with 2× concentrated kinase reactions. The dilution series is selected so that nine concentrations cover a range from 100 nM to 0.01 nM. […] The final concentration of DMSO in the assay is set at 0.05%.
ARAF kinase reactions were carried out for a total of 2 hours at 30° C. and then stopped by addition of EDTA at a final concentration of 40 mM. Reactions were then detected using the AlphaLISA® SureFire® Ultra™ p-MEK 1/2 (Ser218/222) (PerkinElmer) kit. Reactions were performed with 5 μL of kinase reaction according to the manufacturer's specifications in 384-well proxyplates (Perkin Elmer) followed by overnight incubation of the AlphaLISA® reactions at room temperature in a humidified chamber. After completion of the detection reactions, the signals were recorded on a Synergy Neo2 plate reader (Biotek) equipped with AlphaLISA® filters. The effect of each compound dilution on the pMEK signal generated by ARAF reactions was expressed in % inhibition and calculated as follows. An internal 100% inhibition control (average of luminescence in kinase reactions comprising kinase dead MEK1 substrate alone) was included in each plate to measure of pMEK background and was subtracted from each data point. The average of DMSO (vehicle) controls (set as 0% inhibition) was also established and used to calculate % inhibition: % inhibition=100*(1−((pMEK signalcompound)/(pMEK signalDMSO)))
IC50 values were obtained by plotting the kinase inhibition values and fitting the dose-activity curves using a log(agonist) versus response-variable slope (four parameters) function using either GraphPadPrism (V7.0) or Dotmatics Screening Ultra platform. Standards included in the ARAF kinase assay were Belvarafenib (MedChem Express cat #HY-109080; CAS #1446113-23-0), LXH254 (MedChem Express cat #HY-112089; CAS #1800398-38-2) and BGB283 (cat #HY-18957; CAS #1446090-79-4).

Assay [1] deals with pERK in HCT-116 cells (KRAS G13D). The assay is described as follows: Phospho-ERK inhibition (AlphaLISA SureFire Ultra p-ERK 1/2), HCT116. To be noted: for pIC50: read-out: HCT116 pERK IC50; for HCT116 pERK % Ymin (lowest value of the IC50 curve): Ymin above −20% = minimal or no paradoxical activation. An outline of the steps:
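p-ERK1/2 (Thr202/Tyr204) in lysates measured by AlphaLISA after 1 h compound exposure of overnight-plated cells (RPMI-1640, 5% FBS, 0.5% DMSO, ten concentrations, usually from 10 μM). Background from a trametinib control subtracted, inhibition normalised to vehicle, and IC50 fitted with a variable-slope four-parameter model.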
A general note: Alpha assays give light when donor and acceptor beads are brought close together.

A further assay deals with BRAF (Homo sapiens (Human), UniProt P15056). The assay can be described thus: BRAF kinase activity assay (ADP-Glo).
A further assay deals with CRAF (Homo sapiens, UniProt P04049). The assay is described as follows: CRAF kinase activity assay (ADP-Glo). A general note: ADP-Glo turns the ADP formed in a reaction into a luminescent signal.
Setting [2] is: read-out: Kinase IC50 (nM), BRAF biochemical kinase assay, BRAF.
Where [3] appears, read: read-out: Kinase IC50 (nM), CRAF biochemical kinase assay, CRAF.
[4] abbreviates: read-out: Kinase IC50 (nM) CRAF.

pIC50: −log10 of the molar value. Read-outs that look alike come from different tables or passages of the source.

A word on the IC50: it is the concentration that gives 50% inhibition. Broadly, the pIC50 is the IC50 on a negative log10 scale, so that one unit is a factor of ten. Regarding `Cc1c(F)cccc1S(=O)(=O)Nc1ccc(F)c(Nc2ncnc3ccc(-n4cc(C(=O)N(C)CCc5ccccn5)c5ccccc54)nc23)c1F`, on ARAF, the IC50 was in the range of 1 to 10 nM. For the same compound, the negative-log IC50 (pIC50) in assay [1] (HCT116 cells, class symbol) is above 6.30.

With `COC1CCN(c2cccc3c2ncn3-c2ccc3ncnc(Nc4c(F)ccc(NS(=O)(=O)c5cccc(Cl)c5Cl)c4F)c3n2)CC1`, the values for the IC50 at BRAF (setting [2]), at CRAF (setting [3]) and at ARAF were 1 to 10 nM, 10 to 50 nM and 1 to 10 nM, respectively. Moreover, in assay [1] (HCT116 cells), the “HCT116 pERK % Ymin (lowest value of the IC50 curve)” value (“HCT116 pERK % Ymin” for short) is on record as −14%. For the same compound, in assay [1] (HCT116 cells), the pIC50 is above 6.30.

With `CN(C)CCN(C)S(=O)(=O)c1cn(-c2ccc3ncnc(Nc4c(F)ccc(NS(=O)(=O)c5cccc(Cl)c5Cl)c4F)c3n2)c2ccccc12`, the half-inhibitory concentration (IC50) on ARAF is below 1 nM. For the same compound, the pIC50 in assay [1] (HCT116 cells, class symbol) was above 6.30.

`O=S(=O)(Nc1ccc(F)c(Nc2ncnc3ccc(-n4cnc5c(N6CCN(CCO)CC6)cccc54)nc23)c1F)c1cccc(Cl)c1Cl` [621]: the IC50 lay in the range of 1 to 10 nM at BRAF (setting [2]), 10 to 50 nM on CRAF (setting [3]) and 1 to 10 nM at ARAF. The “HCT116 pERK % Ymin” value in assay [1] (HCT116 cells) is reported as 4%. Also, the negative logarithm of the IC50 (pIC50) in assay [1] (HCT116 cells) is above 6.30.

`Cc1c(F)cccc1S(=O)(=O)Nc1ccc(F)c(Nc2ncnc3ccc(-n4nc(C(=O)N5CCC(C)(O)CC5)c5ccccc54)nc23)c1F`: the IC50 at BRAF (read-out: Kinase IC50 (nM) BRAF) is below 1 nM; on CRAF (setting [4]), 10 to 50 nM; on ARAF, 1 to 10 nM. Moreover, the “HCT116 pERK Ymin %” value in assay [1] (HCT116 cells, Ymin in brackets) is given as −4.3%. Besides, in assay [1] (HCT116 cells, class symbol before the bracket), the pIC50 was above 6.30.

Turning to `Cc1c(F)cccc1S(=O)(=O)Nc1ccc(F)c(Nc2ncnc3ccc(-n4cc(C(=O)N5C6CCC5COC6)c5ccccc54)nc23)c1F`, the half-inhibitory concentration (IC50) on ARAF was in the range of 1 to 10 nM. Further, in assay [1] (HCT116 cells, class symbol), the pIC50 is 6.00 to 6.30.

In the case of `O=S(=O)(Nc1ccc(F)c(Nc2ncnc3ccc(-n4cnc5c(N6CCC[C@H](O)C6)cccc54)nc23)c1F)c1cccc(Cl)c1Cl`, the IC50 at BRAF (setting [2]) is below 1 nM; at CRAF (setting [3]) it was below 10 nM; on ARAF, 1 to 10 nM. Moreover, the “HCT116 pERK % Ymin” value in assay [1] (HCT116 cells) was −3%. The pIC50 in assay [1] (HCT116 cells) was above 6.30.

Turning to `O=S(=O)(Nc1ccc(F)c(Nc2ncnc3ccc(-n4cnc5c(-c6cccnc6)cccc54)nc23)c1F)c1cccc(Cl)c1Cl`, the IC50 at ARAF lay within 1 to 10 nM. Moreover, in assay [1] (HCT116 cells, class symbol), the pIC50 was above 6.30.

As for `COc1ccc(S(=O)(=O)Nc2ccc(F)c(Nc3ncnc4ccc(-n5cnc6ccccc65)nc34)c2F)c(C)c1F`, the IC50 is below 10 nM on CRAF (setting [4]); 1 to 10 nM at ARAF; below 0.5 µM in assay [1] (read-out: HCT116 pERK IC50 in μM, HCT116 cells, 1 h treatment). The “HCT116 pERK Ymin %” value in assay [1] (lowest % inhibition value of the IC50 curve, HCT116) was determined as 3%.

In the case of `CN1CC2CCC(C1)N2C(=O)c1nn(-c2ccc3ncnc(Nc4c(F)ccc(NS(=O)(=O)c5cccc(Cl)c5Cl)c4F)c3n2)c2ccccc12`, at ARAF, the IC50 was in the range of 1 to 10 nM. Further, in assay [1] (HCT116 cells, class symbol), the pIC50 was above 6.30.

In the case of `COc1ccc(S(=O)(=O)Nc2ccc(F)c(Nc3ncnc4ccc(-n5cnc6c(N)cccc65)nc34)c2F)cc1`, the IC50 on ARAF was in the range of 1 to 10 nM. Further, the pIC50 in assay [1] (HCT116 cells, class symbol) was above 6.30.
